Results published in ChEMBL document CHEMBL1250448, “Inhibitor hijacking of Akt activation” (Nat Chem Biol, 2009).

The chains behind the UniProt entries cited, without tags or fusion partners.
UniProt P35968, whole entry: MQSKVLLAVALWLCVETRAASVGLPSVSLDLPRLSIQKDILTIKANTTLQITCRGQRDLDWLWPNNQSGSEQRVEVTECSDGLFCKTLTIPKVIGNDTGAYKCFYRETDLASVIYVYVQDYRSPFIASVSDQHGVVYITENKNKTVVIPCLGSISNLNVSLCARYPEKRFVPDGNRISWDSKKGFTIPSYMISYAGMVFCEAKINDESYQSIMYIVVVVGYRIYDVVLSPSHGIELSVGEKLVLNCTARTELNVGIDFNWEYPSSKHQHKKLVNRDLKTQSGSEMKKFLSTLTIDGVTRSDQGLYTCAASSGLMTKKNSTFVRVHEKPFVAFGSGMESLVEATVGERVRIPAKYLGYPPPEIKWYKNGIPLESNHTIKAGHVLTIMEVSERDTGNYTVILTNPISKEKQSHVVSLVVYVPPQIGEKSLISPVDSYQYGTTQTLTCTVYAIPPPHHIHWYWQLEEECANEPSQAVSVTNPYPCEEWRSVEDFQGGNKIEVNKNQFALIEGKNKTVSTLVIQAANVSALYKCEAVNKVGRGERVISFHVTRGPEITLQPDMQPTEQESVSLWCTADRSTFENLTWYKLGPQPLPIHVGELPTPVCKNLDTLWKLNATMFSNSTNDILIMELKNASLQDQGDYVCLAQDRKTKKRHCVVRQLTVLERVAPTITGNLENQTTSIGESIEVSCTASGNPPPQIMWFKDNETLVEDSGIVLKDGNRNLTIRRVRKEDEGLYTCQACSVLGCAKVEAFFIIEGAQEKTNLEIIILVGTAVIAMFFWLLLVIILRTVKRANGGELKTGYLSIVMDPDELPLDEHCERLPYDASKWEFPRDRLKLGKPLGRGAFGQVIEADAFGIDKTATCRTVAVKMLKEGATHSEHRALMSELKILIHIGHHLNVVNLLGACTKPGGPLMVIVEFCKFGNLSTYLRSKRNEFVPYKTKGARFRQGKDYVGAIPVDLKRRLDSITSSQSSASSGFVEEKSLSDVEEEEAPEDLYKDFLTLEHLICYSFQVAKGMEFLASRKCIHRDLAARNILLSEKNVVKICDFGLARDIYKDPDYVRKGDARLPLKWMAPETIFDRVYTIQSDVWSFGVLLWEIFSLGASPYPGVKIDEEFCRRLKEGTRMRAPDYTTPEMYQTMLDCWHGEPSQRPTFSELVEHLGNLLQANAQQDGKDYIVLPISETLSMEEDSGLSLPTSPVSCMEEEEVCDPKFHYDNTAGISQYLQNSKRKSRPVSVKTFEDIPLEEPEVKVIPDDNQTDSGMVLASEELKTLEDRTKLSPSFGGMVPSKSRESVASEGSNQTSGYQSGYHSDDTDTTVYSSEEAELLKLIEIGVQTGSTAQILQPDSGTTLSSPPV

How the values were obtained:
[1] = biological target: T1, Ephrin type-B receptor 4 (Homo sapiens) (UniProt P54760); test: Inhibition of EPHB4 at 1 uM in presence of 10 uM ATP by Select Screen kinase assay relative to untreated control
T1 sequence (whole entry): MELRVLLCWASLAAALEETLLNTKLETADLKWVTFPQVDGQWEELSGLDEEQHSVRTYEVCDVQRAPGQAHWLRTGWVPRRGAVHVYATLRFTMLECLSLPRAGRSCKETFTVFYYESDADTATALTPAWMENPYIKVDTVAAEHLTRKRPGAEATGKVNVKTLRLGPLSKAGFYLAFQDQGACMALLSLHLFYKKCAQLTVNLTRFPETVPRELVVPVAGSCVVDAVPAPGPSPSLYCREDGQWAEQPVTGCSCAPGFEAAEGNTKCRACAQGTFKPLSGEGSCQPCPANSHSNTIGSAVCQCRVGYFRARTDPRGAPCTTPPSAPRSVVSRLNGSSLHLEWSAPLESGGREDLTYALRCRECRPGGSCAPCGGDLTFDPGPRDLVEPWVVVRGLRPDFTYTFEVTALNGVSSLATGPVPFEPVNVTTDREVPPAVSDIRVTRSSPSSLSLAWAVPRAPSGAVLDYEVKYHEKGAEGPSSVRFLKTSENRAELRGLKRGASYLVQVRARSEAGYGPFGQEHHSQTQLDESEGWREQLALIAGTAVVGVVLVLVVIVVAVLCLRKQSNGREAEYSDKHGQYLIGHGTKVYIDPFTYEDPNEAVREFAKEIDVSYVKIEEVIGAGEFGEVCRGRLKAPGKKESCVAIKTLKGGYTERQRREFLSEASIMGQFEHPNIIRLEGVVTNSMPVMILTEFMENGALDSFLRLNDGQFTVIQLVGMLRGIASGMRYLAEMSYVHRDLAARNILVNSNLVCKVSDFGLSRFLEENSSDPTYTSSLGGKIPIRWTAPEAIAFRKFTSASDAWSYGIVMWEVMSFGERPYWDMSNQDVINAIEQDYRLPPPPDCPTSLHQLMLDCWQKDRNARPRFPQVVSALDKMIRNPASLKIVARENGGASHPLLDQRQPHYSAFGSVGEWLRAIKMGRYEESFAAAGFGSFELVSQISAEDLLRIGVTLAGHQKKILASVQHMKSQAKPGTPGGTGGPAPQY
Method in brief: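 Single-point screen at 1 μM against a panel of 220 purified kinases, run by Invitrogen staff as a SelectScreen profiling service. Read-out is percent inhibition of kinase activity.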

[2] = biological target: Vascular endothelial growth factor receptor 2 (Homo sapiens) (UniProt P35968); test: Inhibition of KDR at 1 uM in presence of 10 uM ATP by Select Screen kinase assay relative to untreated control
Method in brief: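 Single-concentration profiling at 1 μM against a panel of 220 purified kinases, run as an outsourced SelectScreen kinase profiling service. Activity is expressed as percent inhibition.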

`Cc1n[nH]c2ccc(-c3cncc(OC[C@@H](N)Cc4c[nH]c5ccccc45)c3)cc12` showed an inhibition [1] of 16% and an inhibition [2] of 16%.
